Usually IC50 stands for the point on the concentration scale where inhibition reaches its midpoint.

Each structure is given as a SMILES string.

Among the data in patent US8426420B2, “Heterocyclic pyrazole-carboxamidesas P2Y12 antagonists” (Sanofi, priority 2007, dated 2013) are IC50 values, retold here.

Experiment [1] deals with human platelet rich plasma. Kind of experiment: Inhibition of human platelet aggregation, 96-well assay. Type of experiment: cell-based. As to conditions: 20 min. The procedure:
(§1) Inhibition of Human Platelet Aggregation
(§2) Alternatively to a binding assay which measures a compound's ability to bind to the P2Y12 receptor, the effect on cellular function was also determined. This ability of the compound was evaluated in two platelet aggregation assays: in 96-well plates and with the “Born”-method using single cuvettes.
Whole blood was collected from healthy volunteers using 20 ml syringes containing 2 ml of ACD-A Aqua-Citrat-Dextrose-A, Fresenius). The anticoagulated whole blood was transferred into 15 ml polypropylene conical tubes (10 ml per tube). The tubes were centrifuged for 15 minutes at 150×g at RT without using the centrifuge brake. This procedure leads to a pellet of cellular components and a supernatant of platelet rich plasma (PRP). The PRP layer was collected from each tube and pooled for each donor. […] The platelet concentration was determined using a Coulter Counter. […]
The human platelet aggregation assay is performed in 96-well plates using a microtiter plate reader (SpectraMax Plus 384 with SoftMax Pro software from Molecular Devices). […] The plates are then transferred to the microplate reader and aggregation is measured over 20 minutes. […]
Absorbance at 650 nm, run time 20 minutes with readings in 1-minute intervals and 50 seconds shaking between readings all performed at 37° C. […]

Experiment [2] has as its system human platelet rich plasma. Kind of experiment: Inhibition of human platelet aggregation, "Born"-method using single cuvettes. Type of experiment: cell-based. The following applies: 0.1 h, ADP-induced aggregation, 6 minutes. As for the experimental part:
as §1, §2
Whole blood was collected from healthy volunteers using 20 ml syringes containing 2 ml of buffered Citrate. The anticoagulated whole blood was transferred into 15 ml polypropylene conical tubes (10 ml per tube). The tubes were centrifuged for 15 minutes at 340×g at RT without using the centrifuge brake. This procedure leads to a pellet of cellular components and a supernatant of platelet rich plasma (PRP). The PRP layer was collected from each tube and pooled for each donor. […] The platelet concentration was determined using a Coulter Counter. […]
In the assay cuvette 4 μl of test compound at 100× final concentration in DMSO is mixed with 392 μl fresh PRP and incubated for 2 minutes at 37° C. with 1.200 rpm stirring. […] After that aggregation is measured over 6 minutes at 37° C. with 1.200 rpm stirring. Results of the assay are expressed as % inhibition, and are calculated using maximum aggregation (Tmax) or area under curve (AUC) of the absorbance over 6 minutes. […]

Molecule `CCOC(=O)N1CCN(C(=O)[C@H](CCNS(C)(=O)=O)NC(=O)c2cc(OCC(=O)N3CCC[C@H]3C(=O)NC3CCC3)n(-c3ccccc3)n2)CC1` [Example 94, 4-[(S)-2-({5-[2-((S)-2-Cyclobutylcarbamoyl-pyrrolidin-1-yl)-2-oxo-ethoxy]-1-phenyl-1H-pyrazole-3-carbonyl}-amino)-4-methanesulfonylamino-butyryl]-piperazine-1-carboxylic acid ethyl ester] showed an IC50 in experiment [1] of 130 nM.

Turning to `CCOC(=O)N1CCN(C(=O)[C@H](CCC(=O)O)NC(=O)c2cc(OCC(=O)N3CCC[C@H]3C(=O)NC3CCC3)n(-c3ccccc3)n2)[C@H](C)C1` [Example 150, (R)-4-[(S)-4-Carboxy-2-({5-[2-((S)-2-cyclobutylcarbamoyl-pyrrolidin-1-yl)-2-oxo-ethoxy]-1-phenyl-1H-pyrazole-3-carbonyl}-amino)-butyryl]-3-methyl-piperazine-1-carboxylic acid ethyl ester], in experiment [2], inhibition was half-maximal at 21 nM (IC50).

Take `O=C(O)CC[C@H](NC(=O)c1cc(OCC(=O)N2CCC[C@H]2C(=O)NC2CCC2)n(-c2ccccc2)n1)C(=O)N1CCN(C(=O)OC2CCC2)CC1` [Example 163, 4-[(S)-4-Carboxy-2-({5-[2-((S)-2-cyclobutylcarbamoyl-pyrrolidin-1-yl)-2-oxo-ethoxy]-1-phenyl-1H-pyrazole-3-carbonyl}-amino)-butyryl]-piperazine-1-carboxylic acid cyclobutyl ester]: the IC50 in experiment [2] came to 42 nM.

For the molecule `CCOC(=O)N1CCN(C(=O)[C@H](CCC(=O)O)NC(=O)c2cc(OCC(=O)N3CCC[C@H]3c3ccccc3)n(-c3ccccc3)n2)CC1` [Example 170, 4-[(S)-4-Carboxy-2-({5-[2-oxo-2-((S)-2-phenyl-pyrrolidin-1-yl)-ethoxy]-1-phenyl-1H-pyrazole-3-carbonyl}-amino)-butyryl]-piperazine-1-carboxylic acid ethyl ester], the midpoint of inhibition in experiment [1], the IC50, lay at 290 nM.
